The test system of the test is cytoskeletal elements (microtubules) of quiescent 3T3 cells. The following applies: taxol in combination with CDNB, chromium, and nickel; FIGS. 2e-2g.

SMILES strings stand for the structures.

On to `CC(=O)O[C@H]1C(=O)[C@@]2(C)[C@H]([C@H](OC(=O)c3ccccc3)[C@]3(O)C[C@H](OC(=O)[C@H](O)[C@@H](NC(=O)c4ccccc4)c4ccccc4)C(C)=C1C3(C)C)[C@]1(OC(C)=O)CO[C@@H]1C[C@@H]2O` [taxol], for which the “protection from cytoskeletal disruption” value is reported as “prevented cytoskeletal disruption”.
